Test results reported in patent publication US7166688B1, “Chelation compositions” (LidoChem, Inc., priority 2000, dated 2007).
Where two headings read alike, the source gives them in different places.

How the values were obtained:
[1] = one drop 17% zinc nitrate, one drop iron nitrate, 0.1 gram copper sulfate, 10 grams potassium phosphate in one liter water, compounds added drop wise until clear; 10 ml added to 100 ml water
[2] = Iron chelation, clear solution / precipitate test; type: physicochemical; settings: five drops 1.8 M ferric nitrate and 10 grams potassium phosphate in one liter water, compound added drop wise until clear; 10 ml added to 1000 ml water

precipitate formation on dilution and standing [1]: No precipitates were formed | precipitate formation on dilution and standing [2]: No precipitates were formed
Substance: potassium salt of succinic—2—aminoethanol, ethanolsuccinicamide [Example 2]
